## Antibody variant affinities, Ab-91 heavy chain, assay 2

The measurements come from Engelhart et al. 2022 (doi:10.1038/s41597-022-01779-4) through the FLAb antibody collection.

Target: peptide PDVDLGDISGINAS, taken from heptad repeat 2 (HR2) of SARS-CoV-2 spike.

Ab-91 is the parent antibody, in scFv form: VL, then a (GGGGS)3 linker, then VH. The light chain is unchanged in all variants.
VL: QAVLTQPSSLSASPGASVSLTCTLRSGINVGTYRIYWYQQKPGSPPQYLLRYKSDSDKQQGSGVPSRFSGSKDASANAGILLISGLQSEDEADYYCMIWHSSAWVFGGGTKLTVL
VH: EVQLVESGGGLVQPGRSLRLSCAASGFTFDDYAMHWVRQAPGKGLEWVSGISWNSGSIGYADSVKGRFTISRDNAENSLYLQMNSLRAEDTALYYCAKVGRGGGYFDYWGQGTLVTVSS

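The parent was found by panning a naive human phage display library on the peptide. The library (AAYL51) carries one to three amino acid substitutions per variant, with no insertions or deletions. The scFvs were displayed on barcoded MATa yeast, the peptide on MATalpha yeast. After mating in shaken culture at 30 °C for 16 h, diploids were selected and their barcode pairs sequenced. Scores were corrected for input abundance and mapped to Kd with protein pairs of known affinity run in the same pool. There are three technical replicates.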

Variants are written as CDR1, CDR2 and CDR3 of the heavy chain (limits as in the source). Parent: GFTFDDYAMH, GISWNSGSIGYADSVK, VGRGGGYFDY.
Each Kd is an estimate from the mating assay, the geometric mean of the replicates in which the pair was seen; lower is stronger.
"no signal" means that the variant was in the library but no mating with the target was seen in any replicate; the authors take this as a sign of poor binding, and no number exists.
Parent in this assay: reference entry 72 nM, copy in this library 7.5 nM.
Three control strains display no target. For library AAYL51, 21% of the pairings with them gave a signal, with a median of 34 µM and one signal in twenty below 1.8 µM, so weak values seen in few replicates may be background.

| Kd | replicates with signal | CDR-H1 | CDR-H2 | CDR-H3 |
|---|---|---|---|---|
| 8.1 µM | 1/3 | GFTFDMYQMH | GISWNSGSIGYADSVK | VDRGGGYFDY |
| no signal | 0/3 | GGPFDDYAEH | GISWNSGSIGYADSVK | VGRGGGYFDY |
| no signal | 0/3 | GFTFDDYAMH | GISWNSGTINYADSVK | VGRGGGYFCY |
| 210 µM | 3/3 | GFTFDDYAMH | GIWWNSGSIGYADIVK | VGRFGGYFDY |
| 6.6 µM | 1/3 | GFTFDDYAMH | GISWNSWIIGYADSVK | VGRGGVYFDY |
| 130 µM | 2/3 | GFTFDDYAMH | GICWNSGSIIYADSVK | VGRGGGYFDY |
| 39 µM | 3/3 | GFTFCDWAMH | GISWNSGSIGYADEVK | VGRGGGYFDY |
| no signal | 0/3 | GHTFDDYAMH | GISWNSGSIGYADSVK | YGRGGGYFSY |
| 60 µM | 1/3 | GFTFDDYLMH | GISWNSGSIGYADSVK | VGRGGPYFMY |
| no signal | 0/3 | GFTFDDYAMH | VISWASGWIGYADSVK | VGRGGGYFDY |
| no signal | 0/3 | GTTFDDYAMH | GISWNSGSIGIPDSVK | VGRGGGYFDY |
| 3.4 µM | 3/3 | GFTFDDYAMH | GISRNSGSIGYMDSVK | VGRGGGYFDK |
| 1.1 mM | 2/3 | GFTPDDYALH | GISWNHGSIGYADSVK | VGRGGGYFDY |
| 4.0 µM | 3/3 | GFTFDFYAMH | GISWNEGSIGYADSVK | VGRGSGYFDY |
| no signal | 0/3 | GFTFDDKAMH | GISWNSGSIGYADSVK | VGRGAGYHDY |
| 72 µM | 1/3 | GFTFDDYAMH | GISWNSGSIGYADSVP | VIRGGVYFDY |
| no signal | 0/3 | GFTFDDYAMH | GISWNSGSIGYADGVH | VGRGGGYWDY |
| 34 µM | 1/3 | GFTFDDYAMH | GISWNSGSEGYADSVK | VGRNGGDFDY |
| 610 nM | 3/3 | GFKFDDYAMH | GISWNSNSIGYADSVK | VGRSGGYFDY |
| 94 nM | 1/3 | GFTFDDYAMH | GISKFSGSIGYADSVK | VGAGGGYFDY |
| 230 nM | 2/3 | GFAFDDYAMH | GISWNSGSIGYADSNK | VGRGQGYFDY |
| no signal | 0/3 | GFTFDDYAMR | GISVNSGSGGYADSVK | VGRGGGYFDY |
| no signal | 0/3 | GFTFDDYAMH | GISWNSGSIGYQDSVK | LGRGGMYFDY |
| 2.4 µM | 1/3 | PFTFGDYAMH | GISWNSVSIGYADSVK | VGRGGGYFDY |
| 63 µM | 1/3 | GFTFDDYAMH | GISIGSGSIGYFDSVK | VGRGGGYFDY |
| no signal | 0/3 | LFTFDDYAMH | GISWNSGSIGYADSNK | CGRGGGYFDY |
| no signal | 0/3 | GFTFDNYAMH | GISWNSGSIYYADSVK | VGRGGGYFDY |
| no signal | 0/3 | GVTFDDYAMH | GISWNSGSIYYADSVK | VGRGGGYFDY |
| no signal | 0/3 | DTTFDDYAMH | GISWNSGSIGYADSVK | VGLGGGYFDY |
| no signal | 0/3 | GFTFDDYAMH | GISWKIGSIGYTDSVK | VGRGGGYFDY |
| no signal | 0/3 | VFTFDDYAMH | GISWNSGSIGYADSVK | VGRGGGINDY |
| no signal | 0/3 | GFTFDDYAMH | GISWNTGSIGYADSVK | VGRGGGYTDY |
| 11 µM | 2/3 | GFTFDDYAMH | GISWNSGSIGYADSVN | VGRFGGYFDY |
| 9.5 nM | 3/3 | GFTFDDYAMH | GISWSSQSIGYADNVK | VGRGGGYFDY |
| 35 µM | 1/3 | GFTFDDYAMH | GISWNKGSIGYADSVY | YGRGGGYFDY |
| no signal | 0/3 | GFTFDHYAMH | GISWNWGSIGYADAVK | VGRGGGYFDY |
| 49 µM | 2/3 | GFTFDDYAMH | GISWISGYIGYADSVK | VPRGGGYFDY |
| no signal | 0/3 | GFTFDDYAMH | GISWWSGSIGYARSVK | VGRHGGYFDY |
| 29 µM | 2/3 | GFTFDDYAMH | GIRWNSGSIGQADSVW | VGRGGGYFDY |
| 43 µM | 2/3 | GFTFDDYAMH | GISWNSGSIGYADSVM | VGRGCGPFDY |
| no signal | 0/3 | GFTFDQYAMH | GISWNSGSIGYADSVM | VGRGGGYFDY |
| 2.4 µM | 3/3 | GFTFDDYAMH | GISVNSGHIGYADSVK | VGRGGGAFDY |
| 25 µM | 2/3 | GFTFDDYAMF | IISWNSGGIGYADSVK | VGRGGGYFDY |
| 97 µM | 1/3 | GRTFDWYAMH | GISWNVGSIGYADSVK | VGRGGGYFDY |
| no signal | 0/3 | GFTFDDMAMH | GISWNSGSIGGADSVK | VGRGGGYFDY |
| 170 µM | 2/3 | GFFFDRYAMH | GISWNSGSIGYADSGK | VGRGGGYFDY |
| no signal | 0/3 | EFTFDDYAMH | GLSWNSGSIGYADSTK | VGRGGGYFDY |
| 58 µM | 1/3 | GFTFDDYAMH | GWSWNSGSIGYADSVD | VGRGGGFFDY |
| 52 µM | 1/3 | GYTFDDYAMH | GVSWNVGSIGYADSVK | VGRGGGYFDY |
| no signal | 0/3 | GFTFDDLARH | GISWNSGSIGYADSVK | VDRGGGYFDY |
| 14 nM | 3/3 | GFAFDDYAMH | GISWNSGSIGYADSVK | CGRGGGYFPY |
| 14 µM | 2/3 | GFVFDDYATH | GISWNSGSIGYADSVK | VGRSGGYFDY |
| no signal | 0/3 | GCTFDDYAMF | GISWNSGSIGYADSVK | VGRGWGYFDY |
| no signal | 0/3 | GFKVDDYAMH | GIEWNSGSIGYADSVK | VGRGGGYFDY |
| 230 µM | 1/3 | FFTFHDYAMH | GISWNSGSIAYADSVK | VGRGGGYFDY |
| 30 µM | 2/3 | GFTFDDYAMH | GISWNSGSIHYADSVK | VGRQGGYADY |
| no signal | 0/3 | GCTFDDYAMH | GISWNSGSIGYANSVK | FGRGGGYFDY |

The 6 strongest on average among those seen in every replicate, once more:

{"CDR-H1": "GFTFDDYAMH", "CDR-H2": "GISWSSQSIGYADNVK", "CDR-H3": "VGRGGGYFDY", "Kd": "9.5 nM", "replicates with signal": "3/3"}
{"CDR-H1": "GFAFDDYAMH", "CDR-H2": "GISWNSGSIGYADSVK", "CDR-H3": "CGRGGGYFPY", "Kd": "14 nM", "replicates with signal": "3/3"}
{"CDR-H1": "GFKFDDYAMH", "CDR-H2": "GISWNSNSIGYADSVK", "CDR-H3": "VGRSGGYFDY", "Kd": "610 nM", "replicates with signal": "3/3"}
{"CDR-H1": "GFTFDDYAMH", "CDR-H2": "GISVNSGHIGYADSVK", "CDR-H3": "VGRGGGAFDY", "Kd": "2.4 µM", "replicates with signal": "3/3"}
{"CDR-H1": "GFTFDDYAMH", "CDR-H2": "GISRNSGSIGYMDSVK", "CDR-H3": "VGRGGGYFDK", "Kd": "3.4 µM", "replicates with signal": "3/3"}
{"CDR-H1": "GFTFDFYAMH", "CDR-H2": "GISWNEGSIGYADSVK", "CDR-H3": "VGRGSGYFDY", "Kd": "4.0 µM", "replicates with signal": "3/3"}